Test results as given in patent publication US20250313563A1, “GLYCOGEN SYNTHASE KINASE 3 INHIBITORS AND USES THEREOF” (The Broad Institute, Inc., priority 2022, published 2025).

Sequences of proteins named here, by UniProt entry; tags and fusion partners are left off.
UniProt P49840, whole entry: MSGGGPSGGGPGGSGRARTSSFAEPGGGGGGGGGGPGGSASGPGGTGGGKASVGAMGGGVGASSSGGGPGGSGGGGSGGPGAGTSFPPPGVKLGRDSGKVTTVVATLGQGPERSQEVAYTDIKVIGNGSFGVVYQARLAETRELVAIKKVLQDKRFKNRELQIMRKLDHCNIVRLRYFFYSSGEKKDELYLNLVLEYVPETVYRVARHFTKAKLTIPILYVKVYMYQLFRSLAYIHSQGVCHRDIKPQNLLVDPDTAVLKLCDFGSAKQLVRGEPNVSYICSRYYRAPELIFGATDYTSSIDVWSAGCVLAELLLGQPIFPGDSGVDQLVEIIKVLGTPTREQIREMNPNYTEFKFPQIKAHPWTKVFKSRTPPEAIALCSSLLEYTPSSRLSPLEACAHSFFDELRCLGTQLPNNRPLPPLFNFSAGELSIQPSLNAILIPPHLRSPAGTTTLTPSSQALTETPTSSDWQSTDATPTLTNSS
UniProt P49841, whole entry: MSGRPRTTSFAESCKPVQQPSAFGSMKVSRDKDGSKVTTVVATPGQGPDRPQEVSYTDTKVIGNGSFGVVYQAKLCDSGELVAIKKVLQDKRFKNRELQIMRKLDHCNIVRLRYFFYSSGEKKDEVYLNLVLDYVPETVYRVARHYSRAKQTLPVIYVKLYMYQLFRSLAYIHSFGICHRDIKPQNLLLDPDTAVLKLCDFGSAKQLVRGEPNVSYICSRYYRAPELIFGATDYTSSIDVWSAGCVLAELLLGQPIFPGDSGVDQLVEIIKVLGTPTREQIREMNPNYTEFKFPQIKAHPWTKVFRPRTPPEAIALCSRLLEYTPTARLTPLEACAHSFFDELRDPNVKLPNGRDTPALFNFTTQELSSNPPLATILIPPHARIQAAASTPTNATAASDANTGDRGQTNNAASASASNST

Experiments:
[1] = molecular target: GSK3α (GST-full length GSK3α) (Homo sapiens (Human), UniProt P49840); experiment: GSK3α TR-FRET kinase assay; assay type: biochemical
[2] = molecular target: GSK3b (GST-full length GSK3b) (Homo sapiens (Human), UniProt P49841); experiment: GSK3b TR-FRET kinase assay; assay type: biochemical
[3] = read-out: GSK3-A TR-FRET BIOCHEMICAL (TR-FRET), IC50, 1 nM GSK3α, 4 μM ATP, 30 minute preincubation (Table 16)
[4] = read-out: GSK3-B TR-FRET BIOCHEMICAL (TR-FRET), IC50, 1 nM GSK3b, 2 μM ATP, 30 minute preincubation (Table 16)
[5] = read-out: GSK3-A TR-FRET BIOCHEMICAL (TR-FRET), GMean, IC50, 1 nM GSK3α, 4 μM ATP, 30 minute preincubation, geometric mean
[6] = read-out: GSK3-B TR-FRET BIOCHEMICAL (TR-FRET), GMean, IC50, 1 nM GSK3b, 2 μM ATP, 30 minute preincubation, geometric mean
[7] = read-out: GSK3-A TR-FRET BIOCHEMICAL (TR-FRET);, 1 nM GSK3α, 4 μM ATP, 30 minute preincubation, Table 16
[8] = read-out: GSK3-B TR-FRET BIOCHEMICAL (TR-FRET);, 1 nM GSK3b, 2 μM ATP, 30 minute preincubation, Table 16
[9] = read-out: GSK3-A (TR-FRET 1 mM ATP), GMean, IC50, 1 mM ATP, geometric mean
[10] = read-out: GSK3-B (TR-FRET 1 mM ATP), GMean, IC50, 1 mM ATP, geometric mean
[11] = read-out: GSK3-A TR-FRET BIOCHEMICAL (TR-FRET), IC50, 1 nM GSK3α, 4 μM ATP, 30 minute preincubation
[12] = read-out: GSK3-B TR-FRET BIOCHEMICAL (TR-FRET), IC50, 1 nM GSK3b, 2 μM ATP, 30 minute preincubation

**Q.** Which IC50 [1, 3] does the source give for CC[C@@]1(c2cccc(N(C)c3cccc(C(F)(F)F)c3)c2)C2=C(CC(C)(C)CC2=O)Nc2n[nH]cc21 here?
**A.** The IC50 was > 5000 nM.

**Q.** And the IC50 [2, 4]?
**A.** The IC50 was > 5000 nM.

**Q.** CCC1(c2cccc(N(C)c3cccnc3)c2)C2=C(CC(C)(C)CC2=O)Nc2n[nH]cc21 (stereo not drawn) was tested. Which IC50 [1, 5] did it give?
**A.** Its IC50 is < 100 nM.

**Q.** And the IC50 [2, 6]?
**A.** Its IC50 is < 100 nM.

**Q.** What does the source list for CC[C@]1(c2cccc(-c3c(C)cncc3C)c2)C2=C(CC(C)(C)CC2=O)Nc2n[nH]cc21?
**A.** IC50 [1, 7]: < 100 nM; IC50 [2, 8]: 100 to 1000 nM

**Q.** Which IC50 [1, 7] does the source give for CCC1(c2cccc(C(F)(F)F)c2)C2=C(CN(c3ccccc3)C2=O)Nc2n[nH]cc21 (stereo not drawn) [Compound 945377] here?
**A.** The IC50 was 100 to 1000 nM.

**Q.** What about the IC50 [2, 8] of the same compound?
**A.** Its IC50 is 1000 to 5000 nM.

**Q.** Which IC50 [1, 9] does the source give for CC[C@@]1(c2cccc(-c3ccnc4c3CCC4)c2)C2=C(CC(C)(C)NC2=O)Nc2n[nH]c(C(F)(F)F)c21 here?
**A.** The IC50 was 100 to 1000 nM.

**Q.** What about the IC50 [1, 5] of the same compound?
**A.** The IC50 was < 100 nM.

**Q.** And the IC50 [2, 10]?
**A.** The IC50 was 1000 to 5000 nM.

**Q.** What about the IC50 [2, 6] of the same compound?
**A.** Its IC50 is < 100 nM.

**Q.** With CC[C@]1(c2cccc(-c3ccnn3C)c2)C2=C(C[C@]3(CCCOC3)NC2=O)Nc2n[nH]cc21 as the compound, how does the IC50 [1, 9] read?
**A.** Its IC50 is 100 to 1000 nM.

**Q.** What about the IC50 [1, 5] of the same compound?
**A.** The IC50 was < 100 nM.

**Q.** And the IC50 [2, 10]?
**A.** The IC50 was 1000 to 5000 nM.

**Q.** What about the IC50 [2, 6] of the same compound?
**A.** Its IC50 is < 100 nM.

**Q.** How did the IC50 [1, 3] turn out when CCC1(c2cccc(-c3cnn(C4CC4)c3)c2)C2=C(CC(C)(C)CC2=O)Nc2n[nH]c(C)c21 (stereo not drawn) was run?
**A.** The IC50 was < 100 nM.

**Q.** And the IC50 [2, 4]?
**A.** The IC50 was 100 to 1000 nM.

**Q.** With CC[C@@]1(c2cccc(-c3c(C)nn(C)c3C)c2)C2=C(CC(C)(C)NC2=O)Nc2n[nH]c(C(F)(F)F)c21 as the compound, how does the IC50 [1, 9] read?
**A.** Its IC50 is < 100 nM.

**Q.** And the IC50 [1, 5]?
**A.** The IC50 was < 100 nM.

**Q.** What about the IC50 [2, 10] of the same compound?
**A.** The IC50 was < 100 nM.

**Q.** What about the IC50 [2, 6] of the same compound?
**A.** The IC50 was < 100 nM.

**Q.** Which IC50 [1, 3] does the source give for CC[C@]1(c2cccc(-c3cnn(Cc4cccc(F)c4F)c3)c2)C2=C(CC(C)(C)NC2=O)Nc2n[nH]cc21 here?
**A.** Its IC50 is < 100 nM.

**Q.** What about the IC50 [2, 4] of the same compound?
**A.** Its IC50 is 100 to 1000 nM.

**Q.** Which results are given for CC[C@]1(c2cccc(-c3ccnc4cc(F)cnc34)c2)C2=C(CC(C)(C)NC2=O)Nc2n[nH]cc21?
**A.** IC50 [1, 3]: < 100 nM; IC50 [2, 4]: 100 to 1000 nM

**Q.** Which results are given for CC[C@@H]1CCN1c1cccc([C@]2(CC)C3=C(CC(C)(C)CC3=O)Nc3n[nH]cc32)c1?
**A.** IC50 [1, 3]: < 100 nM; IC50 [2, 4]: 100 to 1000 nM

**Q.** CCC1(c2cccc(S(C)(=O)=O)c2)C2=C(CC(C)(C)NC2=O)Nc2n[nH]cc21 (stereo not drawn) was tested. Which IC50 [1, 11] did it give?
**A.** Its IC50 is < 100 nM.

**Q.** And the IC50 [2, 12]?
**A.** The IC50 was < 100 nM.

**Q.** What does the source list for CCc1cccc([C@]2(CC)C3=C(CC(C)(C)CC3=O)Nc3n[nH]cc32)c1?
**A.** IC50 [1, 9]: 100 to 1000 nM; IC50 [1, 7]: < 100 nM; IC50 [2, 10]: 1000 to 5000 nM; IC50 [2, 8]: < 100 nM

**Q.** CC[C@]1(c2cccc(-c3ccnc(C)c3)c2)C2=C(Nc3n[nH]cc31)[C@@H]1CC[C@@H](C1)C2=O was tested. Which IC50 [1, 7] did it give?
**A.** The IC50 was < 100 nM.

**Q.** And the IC50 [2, 8]?
**A.** Its IC50 is 100 to 1000 nM.

**Q.** How did the IC50 [1, 5] turn out when CC[C@@]1(c2cccc(-c3ccnc(C)c3F)c2)C2=C(CC(C)(C)NC2=O)Nc2n[nH]cc21 was run?
**A.** Its IC50 is 100 to 1000 nM.

**Q.** And the IC50 [2, 6]?
**A.** The IC50 was 1000 to 5000 nM.

**Q.** CC[C@]1(c2cccc(-c3cc(C)nnc3C)c2)C2=C(CC(C)(C)NC2=O)Nc2n[nH]c(C)c21 was tested. Which IC50 [1, 3] did it give?
**A.** Its IC50 is 1000 to 5000 nM.

**Q.** And the IC50 [2, 4]?
**A.** Its IC50 is > 5000 nM.

**Q.** For CC[C@@]1(c2cccc(Cl)c2)C2=C(CC(C)(C)CC2=O)Nc2n[nH]c(Br)c21, which IC50 [1, 5] is on record?
**A.** Its IC50 is 100 to 1000 nM.

**Q.** And the IC50 [2, 6]?
**A.** The IC50 was 100 to 1000 nM.

**Q.** For CC[C@@]1(c2cccc(-c3ccncc3)c2)C2=C(C[C@@H](C)CC2=O)Nc2n[nH]cc21, which IC50 [1, 5] is on record?
**A.** The IC50 was < 100 nM.

**Q.** What about the IC50 [2, 6] of the same compound?
**A.** The IC50 was 100 to 1000 nM.

**Q.** With CCC1(c2cccc(S(=O)(=O)CC3CC3)c2)C2=C(CC(C)(C)NC2=O)Nc2n[nH]c(C)c21 (stereo not drawn) as the compound, how does the IC50 [1, 5] read?
**A.** Its IC50 is < 100 nM.

**Q.** And the IC50 [2, 6]?
**A.** Its IC50 is < 100 nM.

**Q.** CC[C@]1(c2cccc(C(F)(F)F)c2)C2=C(C[C@]3(CCN(C)C3=O)CC2=O)Nc2n[nH]cc21 was tested. Which IC50 [1, 7] did it give?
**A.** The IC50 was < 100 nM.

**Q.** And the IC50 [2, 8]?
**A.** The IC50 was 100 to 1000 nM.

**Q.** What does the source list for CC[C@]1(c2cccc(N3CCCC3)c2)C2=C(CC(C)(C)CC2=O)Nc2n[nH]cc21?
**A.** IC50 [1, 5]: < 100 nM; IC50 [2, 6]: 100 to 1000 nM

**Q.** With CC[C@]1(c2cccc(S(=O)(=O)C(C)C)c2)C2=C(CC(C)(C)NC2=O)Nc2n[nH]cc21 as the compound, how does the IC50 [1, 5] read?
**A.** Its IC50 is 100 to 1000 nM.

**Q.** What about the IC50 [2, 6] of the same compound?
**A.** The IC50 was 1000 to 5000 nM.

**Q.** With CC[C@@]1(c2cccc(N(C)c3ncccn3)c2)C2=C(CC(C)(C)NC2=O)Nc2n[nH]cc21 [Compound 943964] as the compound, how does the IC50 [1, 5] read?
**A.** The IC50 was 100 to 1000 nM.

**Q.** And the IC50 [2, 6]?
**A.** Its IC50 is > 5000 nM.

**Q.** For CCC1(c2cccc(-c3ncnc(C)c3C)c2)C2=C(CC(C)(C)CC2=O)Nc2n[nH]cc21 (stereo not drawn), which IC50 [1, 7] is on record?
**A.** Its IC50 is < 100 nM.

**Q.** What about the IC50 [2, 8] of the same compound?
**A.** The IC50 was 100 to 1000 nM.

**Q.** CC(C)(C)Cc1[nH]nc2c1[C@]1(CCc3c(F)cccc31)C1=C(CC(C)(C)CC1=O)N2 was tested. Which IC50 [1, 5] did it give?
**A.** Its IC50 is < 100 nM.

**Q.** What about the IC50 [2, 6] of the same compound?
**A.** Its IC50 is < 100 nM.

**Q.** How did the IC50 [1, 11] turn out when CC[C@@]1(c2cccc(-c3cnnc(C)c3)c2)C2=C(CC(C)(C)NC2=O)Nc2n[nH]cc21 was run?
**A.** The IC50 was 1000 to 5000 nM.

**Q.** What about the IC50 [2, 12] of the same compound?
**A.** Its IC50 is > 5000 nM.

**Q.** What does the source list for CC[C@]1(c2ccccc2)C2=C(CC(C)(C)CC2=O)Nc2n[nH]c(C(F)F)c21?
**A.** IC50 [1, 5]: < 100 nM; IC50 [2, 6]: 100 to 1000 nM

**Q.** Which results are given for CC[C@]1(c2cccc(-c3ccnn3C(C)C)c2)C2=C(CC(C)(C)CC2=O)Nc2n[nH]cc21?
**A.** IC50 [1, 7]: < 100 nM; IC50 [2, 8]: < 100 nM

**Q.** Which IC50 [1, 7] does the source give for CC[C@]1(c2cccc(CN(C)c3ccnc(C)c3)c2)C2=C(CC(C)(C)CC2=O)Nc2n[nH]cc21 here?
**A.** The IC50 was > 5000 nM.

**Q.** And the IC50 [2, 8]?
**A.** The IC50 was > 5000 nM.

Like-named read-outs stand apart in the source and are kept apart here.
